Measurements as given in patent US20110195153A1, “Nutritional Formulation Comprising A Cows Milk Peptide Containing Hydrolysate And Or Peptides Derived Thereof For Tolerance Induction” (MEAD JOHNSON NUTRITION COMPANY, priority 2009, published 2011).
“And” between values parts separate entries of the source, which are not always exact repeats. Equal entries are not always repeated.

Tested on: T-cells
Assay: Tolerance induction experiment: T-cell fraction preincubated, combined with APCs and re-stimulated
Assay type: cell-based, human
Details: individual KF1, tolerized with UCO (buffer), the substance is the stimulant, first line
Text: For the tolerance induction experiment, PBMCs from healthy donors were isolated by Ficoll-density gradient, and the cells were further separated into two fractions. T-cells were enriched with a human Pan-T-cell isolation Kit (Miltenyi, Bergisch Gladbach, Germany), whereas antigen-presenting cells were enriched with human CD3 MicroBeads (Miltenyi, Bergisch Gladbach, Germany) by magnetic cell sorting. The purity of the cell fractions was confirmed by FACS analysis.
The cell fractions containing the T-cells were incubated overnight with different peptides or medium alone at 37° C. with 5% CO2 and 95% humidity, the antigen-presenting-cell fractions were kept overnight at the same conditions without any antigens. On the next day, the T-cell fractions were washed with DPBS (GIBCO) three times and the T-cell and antigen-presenting-cell fractions were combined. The cells (2×10^5 cells per well) were cultured in triplicates in 96-well plates as described above. Cells were stimulated with different concentrations of milk samples, 4U IL-2 per well, or medium alone. The analysis was done as described for the lymphoproliferative assays.
T-cell fractions were preincubated over night with high amounts of Nutramigen™ base (VTP11), extensive casein hydrolysate (VTP15), whole cow's milk whey protein (VTP14), Nutramigen™ (VTP3), synthetic peptides ([…], Phl p 5-Pep 1) or buffer (UCO). On the next day the T-cells and the APCs were combined and stimulated with milk samples (VTP14, VTP1). T cell stimulation is given either in counts per minute (cpm) or as stimulation index (SI).

## IL-2: 4U IL-2 per well (Roche) served as a positive control
  SI: 0.9
  mean cpm: 14486 cpm
Individual experiments
  cpm: 16371 cpm and 12600 cpm
